Data taken from article PMC6412401, “Selective Inhibition of Human Monoamine Oxidase B by Acacetin 7-Methyl Ether Isolated from Turnera diffusa (Damiana)” (Molecules, 2019).

By UniProt entry, the sequences of proteins in these tests, tags left out.
UniProt P27338, whole entry: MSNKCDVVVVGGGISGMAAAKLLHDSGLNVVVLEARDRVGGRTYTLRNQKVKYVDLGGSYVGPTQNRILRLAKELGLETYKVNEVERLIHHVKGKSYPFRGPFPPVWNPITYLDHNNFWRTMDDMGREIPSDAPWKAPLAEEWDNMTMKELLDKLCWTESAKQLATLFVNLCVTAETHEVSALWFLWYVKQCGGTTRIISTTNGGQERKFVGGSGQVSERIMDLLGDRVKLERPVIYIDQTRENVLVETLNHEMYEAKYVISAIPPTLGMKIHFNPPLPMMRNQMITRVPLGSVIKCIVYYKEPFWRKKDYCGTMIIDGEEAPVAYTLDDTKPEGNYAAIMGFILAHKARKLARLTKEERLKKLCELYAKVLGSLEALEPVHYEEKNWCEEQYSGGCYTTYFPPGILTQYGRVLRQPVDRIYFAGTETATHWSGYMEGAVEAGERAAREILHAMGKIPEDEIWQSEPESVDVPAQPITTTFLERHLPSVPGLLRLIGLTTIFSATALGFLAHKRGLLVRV

Key:
recombinant human MAO-B [1] = target: T1, recombinant human MAO-B (Homo sapiens, UniProt P27338); test: Enzyme kinetics and mechanism studies (Lineweaver-Burk)
recombinant human MAO-B [2] = target: T1, recombinant human MAO-B; test: MAO-B inhibition assay (kynuramine oxidative deamination)

Ki (recombinant human MAO-B [1]): 36 ± 4 nM | IC50 (recombinant human MAO-B [2]): 50 ± 2.5 nM
Compound: COc1ccc(-c2cc(=O)c3c(O)cc(O)cc3o2)cc1 [Acacetin]
